# Hits are enriched below; roughly 2.8% of the tested compounds scored in any of these assays.
# E-selectin induc: E-selectin induction on HUVECs | 0.37% of 260,000 active | HUVEC E-selectin immunofluorescence imaging; normalized: neutral wells 0, TNF-alpha wells 100 | activation, % at 7.58 µM | P16581 | AID 686992;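 active = mean E-selectin-positive cell signal at least 10% of the positive control, reached in at least 60% of replicates, without over 20% cell loss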
#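 Read-out: % PE-positive cells | Test system: HUVEC | Doses: One compound dose added by pin transfer | Buffer or medium: EGM-2 over gelatin coat | Signal: Immunofluorescence imaging | Benchmarks: TNF-alpha, DMSO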
# PGC1a acetyl inh: lowers PGC1a acetylation signal in U2OS cells. AlphaScreen anti-acetyl-lysine; with virally co-expressed GCN5 acetyltransferase. inhibition, % at 15.6 µM. 0.17% of 350,000 active;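 active = every replicate shows inhibition of at least 40%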;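 note: 0% = neutral control wells and 100% = positive control wells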
# esBAF inh: inhibitors of esBAF chromatin remodeling in mouse ES cells; Bmi1-luciferase knock-in reporter, 24 h; 100% = twice the neutral-well signal; reporter increase, % at 12.5 µM; 2% of 350,000 active; in the data active = activation above about 40%;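 note: 0% = median of the plate's neutral control wells and 100% = double that signal; a rise in the Bmi1 reporter signal indicates esBAF inhibition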
# Statin myotox sup: suppression of simvastatin myotoxicity; C2C12 myotubes + simvastatin, ATP luminescence, 48 h; scaled: DMSO 0, geranylgeraniol control 100; rescue of ATP level, % at 7.49 µM; 0.78% of 330,000 active; AID 602340;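 active = mean ATP rescue above about 67%, or every replicate alone reaching that limit, limit read from the data, passing the limit was not always enough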;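 note: myotubes were challenged with 10 µM simvastatin during compound exposure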
# PglD DTNB: PglD (C. jejuni) enzyme inhibition; purified PglD enzyme, DTNB colorimetric CoA detection; inhibition, % at 12.5 µM; 0.098% of 360,000 active; AID 602405; in the data active = inhibition above about 16%, passing the limit was not always enough
# Yeast UUG start: modulators of yeast start codon fidelity, primary screen, whole organism, S. cerevisiae, single point, plate reader; S. cerevisiae UUG-firefly luciferase reporter, luminescence/redox ratio; activity score, % at 18.7 µM; 0.13% of 350,000 active; AID 602363, 2012;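 active = replicate mean at a twofold rise or more, about +100% in these data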;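 also: firefly luciferase made from a UUG start codon reports start codon fidelity; reporter light over untreated wells divided by growth signal over untreated wells; some hits fall short of that in this replicate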
# * marks the source's active call; other numbers are inactive results; x = not tested or not shown.
# Labels used below – A = E-selectin induc; B = PGC1a acetyl inh; C = esBAF inh; D = Statin myotox sup; E = PglD DTNB; F = Yeast UUG start
C[C@@H]1CN([C@H](C)CO)C(=O)c2cc(NC(=O)CCCCCC(=O)Nc3ccccc3N)ccc2O[C@@H]1CN(C)Cc1ccc(Oc2ccccc2)cc1
  A: 0; B: 1; C: x; D: x; E: x; F: x

CCC(=O)N1[C@H](C#N)[C@H](c2ccccc2-c2ccccc2)[C@H]1CO
  A: 0; B: -10; C: x; D: x; E: x; F: x

COc1ccc(C(C#N)=Cc2ccc(N(C)CCC#N)cc2)cc1
  A: 0; B: -6; C: 77*; D: -26; E: -1; F: -21

COc1ccc(/C(C#N)=C/c2cccnc2)cc1
  A: 0; B: x; C: 42*; D: -1; E: -6; F: -17

CCNC(=S)NNC(=O)c1cccn(Cc2ccc(Cl)cc2Cl)c1=O
  A: x; B: 2; C: -6; D: 82*; E: 2; F: -38

O=C1c2ccccc2NC(c2ccc(-c3ccc(F)cc3)o2)N1O (configuration not stated)
  A: 0; B: x; C: 41*; D: 1; E: -2; F: -9

O=C1c2ccccc2NC(c2ccc(-c3ccc(Br)cc3)o2)N1O (configuration not stated)
  A: x; B: 11; C: x; D: x; E: -5; F: 1

CO[C@@H]1CN(C)C(=O)c2ccc(NC(=O)CC(F)(F)F)cc2OC[C@H](C)N(C(=O)C2CC2)C[C@H]1C
  A: 0; B: -16; C: x; D: x; E: x; F: x

Cc1ccc(S(=O)(=O)N(C)C[C@@H]2Oc3cc(C#Cc4ccccc4)ccc3S(=O)(=O)N([C@@H](C)CO)C[C@H]2C)cc1
  A: 2; B: 9; C: -5; D: -10; E: 1; F: -17

COc1ccc(C2CC(c3ccccc3)=NN2C(=O)c2cccs2)cc1 (configuration not stated)
  A: x; B: 9; C: 47*; D: -9; E: 0; F: 2

COc1ccc(C2=NN(C(=O)c3cccs3)C(c3ccccc3O)C2)cc1 (configuration not stated)
  A: 0; B: x; C: x; D: x; E: x; F: x

COc1ccccc1N1CCN(C(=O)c2cc(-c3ccc(F)cc3)[nH]c2C)CC1
  A: 0; B: 5; C: 4; D: 119*; E: 2; F: 0

COc1ccc(NC(=O)N2CCCCN3[C@H](C2)[C@@H](c2ccc(C#Cc4ccccc4)cc2)[C@@H]3CO)cc1
  A: x; B: 0; C: x; D: x; E: -2; F: 28

Nn1c(SCc2ccccc2)nc2ccccc21
  A: x; B: x; C: 54*; D: 10; E: -1; F: -20

COC(=O)[C@H](Cc1ccccc1)NC(=O)c1cc(COc2c(F)cccc2F)on1
  A: x; B: -18; C: 52*; D: -5; E: 5; F: -16

# Continued (two carried over from the part before).
SMILES	E-selectin induc	PGC1a acetyl inh	esBAF inh	Statin myotox sup	PglD DTNB	Yeast UUG start
Nn1c(SCc2ccccc2)nc2ccccc21	x	x	54*	10	-1	-20
COC(=O)[C@H](Cc1ccccc1)NC(=O)c1cc(COc2c(F)cccc2F)on1	x	-18	52*	-5	5	-16
CN(Cc1cc(-c2ccccc2)on1)C(=O)c1cc(COc2c(F)cccc2F)on1	0	0	54*	-42	-2	-18
CCC(NC(=O)c1cc(COc2c(F)cccc2F)on1)c1ccncc1 (configuration not stated)	x	x	9	-9	4	5
CNc1cncc(-c2cnn(CC(C)C)c2)n1	0	-10	43*	4	0	-16
CNc1cncc(-c2ccoc2)n1	0	4	1	2	-2	-16
C[C@H]1CN([C@@H](C)CO)C(=O)c2cc(NC(=O)CCC(F)(F)F)ccc2O[C@@H]1CN(C)C	x	3	0	-7	1	-17
CCNC(=O)Nc1ccc2c(c1)C(=O)N(C)[C@H]1CC[C@H](CC(=O)NCCOC)O[C@@H]1CO2	0	10	0	-14	-1	13
C[C@@H]1CN([C@H](C)CO)C(=O)Cc2cc(NC(=O)c3ccncc3)ccc2O[C@@H]1CN(C)CC1CC1	0	3	-7	1	-2	-11
Nc1nc(NCc2c(F)cccc2Cl)nn1-c1ccccc1	x	9	15	101*	0	-27
Cc1ccccc1CNc1nc(N)n(-c2ccccc2)n1	0	-3	0	0	-2	-20
COC(=O)c1ccccc1NC(=O)N1c2ccccc2CC1C (configuration not stated)	x	-6	6	6	2	-6
CCCCNC(=O)N1c2ccccc2CC1C (configuration not stated)	155*	9	3	-16	x	x
C/C(=C\c1ccc(C(=O)O)cc1)c1ccc2c(c1)C(C)(C)CCC2(C)C	0	16	46*	-76	2	-16
C[C@@H]1CCCCO[C@@H](CN(C)C(=O)Nc2ccc(F)cc2)[C@@H](C)CN([C@H](C)CO)C(=O)c2cc(NC(=O)Nc3ccc(F)cc3)ccc2O1	x	2	-2	x	3	-5
c1ccc(CSc2ncn(-c3ccccc3)n2)cc1	x	-8	45*	3	-1	-14
